Results: patent EP1203584A1, “Cholinergic precursor (in particular choline alfoscerate) associated with an acetylcholinesterase inhibitor (such as rivastigmine, donepezil)” (priority 2000, dated 2002)

Tested on: levels of acetylcholine in the cerebral cortex (frontal area), in the hippocampus and in the corpus striatum
Experiment: Levels of acetylcholine in rat brain areas after 1 week of treatment
Parameters: species or system Male Wistar rats
Conditions: in vivo, po, 2.5 mg/kg
Excerpt: The effects of the combination of the cholinergic precursor choline alfoscerate and rivastigmine (acetylcholinesterase inhibitor) on the levels of acetylcholine in the cerebral cortex (frontal area), in the hippocampus and in the corpus striatum of rats, and on the immunoreactivity of the neuronal acetylcholine in the neurones of the magnocellular nucleus basalis (MNB) and in the corpus striatum were studied.
Male Wistar rats were divided into 5 groups, one of which was a control group (non-treated), one treated for 1 week by intraperitoneal administration of 150 mg/kg of choline alfoscerate, one treated with a daily oral dose of 2.5 mg/kg of rivastigmine, the fourth with 150 mg/kg of choline alfoscerate plus 0.625 mg/kg of rivastigmine and the fifth with 150 mg/kg of choline alfoscerate plus 2.5 mg/kg of rivastigmine.

CCN(C)C(=O)Oc1cccc([C@H](C)N(C)C)c1 [rivastigmine]
increased the levels of acetylcholine: approximately 20%
